For three compounds, IC50 results are on record in paper PMC3317675 (International Journal of Molecular Sciences, 2012).

By UniProt entry, the sequences of proteins in these tests, tags left out. Where a name states a change or a piece, a line headed by the entry shows the natural chain unless it says otherwise.
UniProt P31652, whole entry: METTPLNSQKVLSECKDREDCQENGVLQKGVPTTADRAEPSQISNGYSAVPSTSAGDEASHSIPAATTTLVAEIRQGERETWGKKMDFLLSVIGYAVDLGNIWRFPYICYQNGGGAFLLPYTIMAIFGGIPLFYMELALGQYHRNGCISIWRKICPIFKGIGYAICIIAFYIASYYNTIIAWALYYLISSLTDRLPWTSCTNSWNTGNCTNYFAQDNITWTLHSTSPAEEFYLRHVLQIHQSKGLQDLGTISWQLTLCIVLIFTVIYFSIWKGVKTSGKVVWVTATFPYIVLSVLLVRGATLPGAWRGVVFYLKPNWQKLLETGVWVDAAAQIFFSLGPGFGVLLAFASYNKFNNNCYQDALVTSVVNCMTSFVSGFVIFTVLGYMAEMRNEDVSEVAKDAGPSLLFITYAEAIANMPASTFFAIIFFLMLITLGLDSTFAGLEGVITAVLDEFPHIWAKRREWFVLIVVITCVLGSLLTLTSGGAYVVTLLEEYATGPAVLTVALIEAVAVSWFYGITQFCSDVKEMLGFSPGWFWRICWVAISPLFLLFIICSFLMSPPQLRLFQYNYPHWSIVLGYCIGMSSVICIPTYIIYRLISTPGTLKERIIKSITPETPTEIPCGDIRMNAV

One assay concerns the target T1, rSERT (Rattus norvegicus, UniProt P31652).
T1 construct: gene Slc6a4; previously cloned cDNA; no tag mentioned
Put plainly: [3H]5-HT uptake inhibition, stable CHO cells. In kind it is cell-based.

The target of another assay is T2, mGAT3 (Mus musculus, UniProt P31650).
T2 sequence (P31650 1-627): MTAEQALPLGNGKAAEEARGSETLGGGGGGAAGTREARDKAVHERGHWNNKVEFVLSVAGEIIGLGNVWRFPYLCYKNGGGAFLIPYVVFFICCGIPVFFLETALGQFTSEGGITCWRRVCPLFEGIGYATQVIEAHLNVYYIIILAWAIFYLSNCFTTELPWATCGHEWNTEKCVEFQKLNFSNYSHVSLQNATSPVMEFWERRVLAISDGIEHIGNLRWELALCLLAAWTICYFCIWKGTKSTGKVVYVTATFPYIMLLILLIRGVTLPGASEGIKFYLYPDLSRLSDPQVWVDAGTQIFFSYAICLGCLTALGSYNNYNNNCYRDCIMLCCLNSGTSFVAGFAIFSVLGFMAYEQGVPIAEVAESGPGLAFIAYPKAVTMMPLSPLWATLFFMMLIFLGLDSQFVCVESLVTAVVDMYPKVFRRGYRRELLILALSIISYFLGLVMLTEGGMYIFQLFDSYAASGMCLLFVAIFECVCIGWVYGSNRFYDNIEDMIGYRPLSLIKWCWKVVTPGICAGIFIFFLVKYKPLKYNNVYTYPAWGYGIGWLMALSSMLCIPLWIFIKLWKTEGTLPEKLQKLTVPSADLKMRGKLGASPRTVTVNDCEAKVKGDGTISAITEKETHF
Put plainly: cell-based. Details: gene Slc6a11.

A further assay concerns the target mGAT1 (Mus musculus, UniProt P31648). As to the kind of experiment: cell-based. Details: gene Slc6a1.

Turning to `CNCCC=C1c2ccccc2CCc2ccccc21` [Nortriptyline], the IC50 at rSERT worked out at 0.63 µM. Compound `NCCCC(=O)O` [GABA] displayed an IC50 against mGAT3 of 4.6 µM. In turn, `O=C(O)C1CCCNC1` (stereo not drawn) [Nipecotic acid] registered an IC50 against mGAT1 of 9.7 µM.
